# PubChem BioAssay AID624263 (National Center for Advancing Translational Sciences (NCATS), 2012)
# Only a part is listed here, and it is no random draw. Activity calls are given as the source filed them. The call rests on the fitted dose curve; in most records, active means well fitted activation curve with a large enough effect; inconclusive means small, poorly fitted or top-dose-only effect; inactive means flat fitted curve, though single readings scatter; cell line not stated here.
# Assay: A Quantitative High throughput Screen to Identify Chemical Modulators of PINK1 Expression; further: % of control where 0% means no effect; nearly all actives have a fitted effect of over 65% in size
# Conditions: PINK1 immunofluorescence, high-content cytometry, 24 h; at 76.6 µM (top of the series) unless noted
row,SMILES,activation (PINK1 increase)
1,CCOC(=O)C(CC)C1=NC(C)(C)Cc2ccccc21.O=[N+]([O-])c1cc([N+](=O)[O-])c(O)c([N+](=O)[O-])c1 (stereo not given),inactive: 1.11%
2,CN(C)C1(CNC(=O)c2cccc(C#N)c2)CCCCC1,inactive: 4.59%
3,O=C(NCC1(N2CCOCC2)CCCCC1)c1ccccc1,inactive: 0.638%
4,Cc1cc(N(CCCl)CCCl)ccc1C=O,inactive: -5.04%
5,O=c1[nH]c2ccccc2n1C1CCN(C(c2ccccc2)c2nnnn2C2CCCC2)CC1 (stereo not given),inactive: -0.425%
6,CCCN1CCC(Nc2cc(OC)cc(OC)c2)CC1,inactive: 2.15%
7,c1ccc(CN2CCC(Nc3ccccc3)CC2)cc1,inactive: -0.91%
8,CC(C)(C)n1nnnc1C(c1cccc2ccccc12)N1CCC(n2c(=O)[nH]c3ccccc32)CC1 (stereo not given),inactive: 0.371%
9,CCC(c1nnnn1C1CCCCC1)N1CCC(n2c(=O)[nH]c3ccccc32)CC1 (stereo not given),inactive: 2.86%
10,CN(C)C1(CNC(=O)c2ccc(C(C)(C)C)cc2)CCCCC1,inactive: 0.763%
11,COc1cccc(C(c2nnnn2C2CCCCC2)N2CCC(n3c(=O)[nH]c4ccccc43)CC2)c1OC (stereo not given),inactive: 3.72%
12,CC(=O)N(c1ccccc1)C1CCNCC1,inactive: 0.745%
13,COc1cc(OC)cc(C(=O)NCC2(N3CCCCC3)CCCCC2)c1,inactive: 0.245%
14,O=c1[nH]c2ccccc2n1C1CCN(C(c2ccnc3ccccc23)c2nnnn2C2CCCCC2)CC1 (stereo not given),inactive: 0.609%
15,Cc1ccc(C(=O)NCC2(N3CCCCC3)CCCCC2)o1,inactive: 1.29%
16,Cc1ccc(NC2(C#N)CCN(Cc3ccccc3)CC2)cc1,inactive: -1%
17,CCN1CCC(Nc2cccc(F)c2)CC1,inactive: -0.0038%
18,COc1ccc(C(c2nnnn2C2CCCCC2)N2CCC(n3c(=O)[nH]c4ccccc43)CC2)cc1 (stereo not given),inactive: 0.941%
19,CC(C)(C)n1nnnc1C(c1ccnc2ccccc12)N1CCC(n2c(=O)[nH]c3ccccc32)CC1 (stereo not given),inactive: -0.27%
20,Cc1ccccc1NC1(C#N)CCN(Cc2ccccc2)CC1,inactive: 5.48%

row,SMILES,activation (PINK1 increase)
1,Cc1ccccc1C(=O)NCC1(N(C)C)CCCCC1,inactive: 1.2%
2,CN(C)c1ccc(C(=O)NCC2(N3CCCCC3)CCCCC2)cc1,inactive: 2.45%
3,Cn1c(=O)[nH]cc(N(CCCl)CCCl)c1=O,inactive: -0.702%
4,O=C(NCC1(N2CCCCC2)CCCCC1)c1ccco1,inactive: 0.5%
5,CC(C)(C)c1ccc(C(=O)NCC2(N3CCOCC3)CCCCC2)cc1,inactive: 1.03%
6,CN1CCC(Nc2ccc(F)c(Cl)c2)CC1,inactive: -1.63%
7,CCOc1ncccc1C(=O)NCC1(N2CCOCC2)CCCCC1,inactive: 0.163%
8,O=C(O)C1(Nc2ccccc2)CCN(Cc2ccccc2)CC1,inactive: -0.991%
9,NN(c1ccccc1)C1CCN(CCc2ccccc2)CC1,inactive: 2.58%
10,ClCCN(CCCl)c1ccc(C=C2C=CC=C2)cc1,inactive: -0.84%
11,CC(C)(C)OC(=O)N1CCC(Nc2ccccc2)CC1,inactive: 3.59%
12,O=c1[nH]c2ccccc2n1C1CCN(C(c2cc3ccccc3o2)c2nnnn2C2CCCC2)CC1 (stereo not given),inactive: -0.848%
13,CCCOc1ccc(C(=O)NCC2(N(C)C)CCCCC2)cc1,inactive: -2%
14,ClCCN(CCCl)c1ccccc1,inactive: -0.291%
15,COc1cc(OC)cc(C(=O)NCC2(N3CCOCC3)CCCCC2)c1,inactive: -0.522%
16,COc1cccc(C(c2nnnn2C2CCCC2)N2CCC(n3c(=O)[nH]c4ccccc43)CC2)c1OC (stereo not given),inactive: -0.107%
17,COc1cc(C(=O)NCC2(N3CCOCC3)CCCCC2)cc(OC)c1OC,inactive: 0.707%
18,COc1cccc(C(=O)N(c2cc(C)cc(C)c2)C2CCN(C(=O)OC(C)(C)C)CC2)c1,inactive: 5.97%
19,CCC(CO)(C(=O)OC1CN2CCC1CC2)c1ccccc1 (stereo not given),inactive: -0.37%
20,CN1CCC(Nc2ccc(Cl)cc2)CC1,inactive: -0.429%
